pEC50, pKi: −log10 of the molar value.
Assays:
[1] = biological target: T1, Relaxin-3 receptor 1 (Homo sapiens, UniProt Q9NSD7); assay: biochemical
T1 sequence (Q9NSD7 whole entry): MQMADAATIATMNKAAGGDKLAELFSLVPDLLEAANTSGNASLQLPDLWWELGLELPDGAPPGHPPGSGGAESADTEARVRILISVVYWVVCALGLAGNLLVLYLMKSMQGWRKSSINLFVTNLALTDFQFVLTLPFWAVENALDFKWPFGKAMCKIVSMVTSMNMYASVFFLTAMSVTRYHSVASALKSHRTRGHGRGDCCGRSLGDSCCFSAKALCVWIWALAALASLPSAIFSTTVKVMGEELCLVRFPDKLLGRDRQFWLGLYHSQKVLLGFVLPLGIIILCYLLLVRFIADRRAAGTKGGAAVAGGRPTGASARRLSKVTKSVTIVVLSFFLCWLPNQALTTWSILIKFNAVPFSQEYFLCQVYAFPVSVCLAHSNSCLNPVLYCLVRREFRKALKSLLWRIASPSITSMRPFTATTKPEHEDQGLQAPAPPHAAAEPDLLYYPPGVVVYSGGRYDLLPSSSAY

[2] = biological target: T1, Relaxin-3 receptor 1

COc1cc(C)c2[nH]cc(/C=N/NC(=N)NCCc3ccc(Cl)c(Cl)c3)c2c1 showed a pKi [1] of 5.60 and a pEC50 [2] of 6.51.

Reference: ChEMBL document CHEMBL5032539, “Indole-Containing Amidinohydrazones as Nonpeptide, Dual RXFP3/4 Agonists: Synthesis, Structure-Activity Relationship, and Molecular Modeling Studies” (J Med Chem, 2021)
